Experimental data reported in paper PMC11684019, “Unveiling the Antimycobacterial Potential of Novel 4-Alkoxyquinolines: Insights into Selectivity, Mechanism of Action, and In Vivo Exposure” (Journal of Medicinal Chemistry, 2024).

Conditions: mice, 300 mg/kg gavage

Q: With `CCc1ccc(NCCCOc2cc(C)nc3ccc(Br)cc23)cc1` [8t, N-(3-((6-bromo-2-methylquinolin-4-yl)oxy)propyl)-4-ethylaniline] as the molecule, how does the “Plasma concentration at 8 h relative to MIC against H37Rv” value read?
A: 196 fold
